Patent publication US20040023981A1, “Salt forms with tyrosine kinase activity” (priority 2002, published 2004)

Columns and labels:
[1] = for weight gain: 75% RH
[2] = for pH of the resulting aqueous solution: water solubility sample
[3] = not given; remark: listed apart in the source

Compound | hygroscopicity (in words) ([1]; 25° C.) | weight gain [1] [% wt.] | solubility in water (drug concentration in the supernatant) [2] [µg/mL] | pH of the resulting aqueous solution [2] | solid form after suspension in water ([3]; 3 weeks suspension) | solid form after suspension in water ([3]; suspension time not stated) | also measured
CNC(=O)N1CCN(Cc2ccnc(Nc3ncc(C#N)s3)c2)CC1 [Form C, 4-[2-(5-cyano-thiazol-2-ylamino)-pyridin-4-ylmethyl]-piperazine-1-carboxylic acid methylamide] | not hygroscopic | – | – | – | – | – | moisture picked up ([1]; 25° C., 90% RH): about 0.6%
CNC(=O)N1CCN(Cc2ccnc(Nc3ncc(C#N)s3)c2)CC1 [Form D, 4-[2-(5-cyano-thiazol-2-ylamino)-pyridin-4-ylmethyl]-piperazine-1-carboxylic acid methylamide] | slightly hygroscopic | 3.7 | 1900 (≈ 5.32 mM) | 2.1 | retains the same form | – | solid form by hot-stage XRPD (100° C.): retained its form; solid form by hot-stage XRPD (175° C.): changed to a different anhydrous form (Form F)
CNC(=O)N1CCN(Cc2ccnc(Nc3ncc(C#N)s3)c2)CC1 [Form E, 4-[2-(5-cyano-thiazol-2-ylamino)-pyridin-4-ylmethyl]-piperazine-1-carboxylic acid methylamide] | non-hygroscopic | 1.06 | – | – | – | converted to Form D | –
CNC(=O)N1CCN(Cc2ccnc(Nc3ncc(C#N)s3)c2)CC1 [Form F, 4-[2-(5-cyano-thiazol-2-ylamino)-pyridin-4-ylmethyl]-piperazine-1-carboxylic acid methylamide] | nonhygroscopic | – | 5700 (≈ 15.9 mM) | 2.7 | – | – | solid form upon storage (25° C. and ambient RH): remains anhydrous; solid form after suspension in water ([3]; 2 weeks suspension): complete conversion to the monohydrate (Form D); solid form after suspension in water ([3]; 2 days suspension): no conversion to the monohydrate (Form D)
CNC(=O)N1CCN(Cc2ccnc(Nc3ncc(C#N)s3)c2)CC1 [Form G, 4-[2-(5-cyano-thiazol-2-ylamino)-pyridin-4-ylmethyl]-piperazine-1-carboxylic acid methylamide] | only slightly hygroscopic | – | 5100 (≈ 14.3 mM) | 2.6 | converts to Form I | – | stepwise weight increases ([1]; at 15% RH and 90% RH, reversible): 3 % wt.
CNC(=O)N1CCN(Cc2ccnc(Nc3ncc(C#N)s3)c2)CC1 [Form H, 4-[2-(5-cyano-thiazol-2-ylamino)-pyridin-4-ylmethyl]-piperazine-1-carboxylic acid methylamide] | – | – | 5400 (≈ 15.1 mM) | 2.5 | converts to Form I | – | –
CNC(=O)N1CCN(Cc2ccnc(Nc3ncc(C#N)s3)c2)CC1 [Form J, 4-[2-(5-cyano-thiazol-2-ylamino)-pyridin-4-ylmethyl]-piperazine-1-carboxylic acid methylamide] | nonhygroscopic | 0.3 | 510 (≈ 1.43 mM) | 3.6 | – | no change in forms | –
CNC(=O)N1CCN(Cc2ccnc(Nc3ncc(C#N)s3)c2)CC1 [Form K, 4-[2-(5-cyano-thiazol-2-ylamino)-pyridin-4-ylmethyl]-piperazine-1-carboxylic acid methylamide] | nonhygroscopic | – | – | – | – | converts to form J | –
CNC(=O)N1CCN(Cc2ccnc(Nc3ncc(C#N)s3)c2)CC1 [hydrochloride ethanolate, 4-[2-(5-cyano-thiazol-2-ylamino)-pyridin-4-ylmethyl]-piperazine-1-carboxylic acid methylamide] | – | – | – | – | – | converted back to the HCl monohydrate D | –
CNC(=O)N1CCN(Cc2ccnc(Nc3ncc(C#N)s3)c2)CC1 [tartrate salt, 4-[2-(5-cyano-thiazol-2-ylamino)-pyridin-4-ylmethyl]-piperazine-1-carboxylic acid methylamide] | nonhygroscopic | 0.75 | 310 | 3.6 | no change in forms | – | –

≈ marks a conversion by molar mass, not a printed value. Structures can show the parent of a compound that is named as a salt. Where two headings read alike, the source gives them in different places.
